By UniProt entry, the sequences of proteins in these tests, tags left out.
UniProt P09619, whole entry: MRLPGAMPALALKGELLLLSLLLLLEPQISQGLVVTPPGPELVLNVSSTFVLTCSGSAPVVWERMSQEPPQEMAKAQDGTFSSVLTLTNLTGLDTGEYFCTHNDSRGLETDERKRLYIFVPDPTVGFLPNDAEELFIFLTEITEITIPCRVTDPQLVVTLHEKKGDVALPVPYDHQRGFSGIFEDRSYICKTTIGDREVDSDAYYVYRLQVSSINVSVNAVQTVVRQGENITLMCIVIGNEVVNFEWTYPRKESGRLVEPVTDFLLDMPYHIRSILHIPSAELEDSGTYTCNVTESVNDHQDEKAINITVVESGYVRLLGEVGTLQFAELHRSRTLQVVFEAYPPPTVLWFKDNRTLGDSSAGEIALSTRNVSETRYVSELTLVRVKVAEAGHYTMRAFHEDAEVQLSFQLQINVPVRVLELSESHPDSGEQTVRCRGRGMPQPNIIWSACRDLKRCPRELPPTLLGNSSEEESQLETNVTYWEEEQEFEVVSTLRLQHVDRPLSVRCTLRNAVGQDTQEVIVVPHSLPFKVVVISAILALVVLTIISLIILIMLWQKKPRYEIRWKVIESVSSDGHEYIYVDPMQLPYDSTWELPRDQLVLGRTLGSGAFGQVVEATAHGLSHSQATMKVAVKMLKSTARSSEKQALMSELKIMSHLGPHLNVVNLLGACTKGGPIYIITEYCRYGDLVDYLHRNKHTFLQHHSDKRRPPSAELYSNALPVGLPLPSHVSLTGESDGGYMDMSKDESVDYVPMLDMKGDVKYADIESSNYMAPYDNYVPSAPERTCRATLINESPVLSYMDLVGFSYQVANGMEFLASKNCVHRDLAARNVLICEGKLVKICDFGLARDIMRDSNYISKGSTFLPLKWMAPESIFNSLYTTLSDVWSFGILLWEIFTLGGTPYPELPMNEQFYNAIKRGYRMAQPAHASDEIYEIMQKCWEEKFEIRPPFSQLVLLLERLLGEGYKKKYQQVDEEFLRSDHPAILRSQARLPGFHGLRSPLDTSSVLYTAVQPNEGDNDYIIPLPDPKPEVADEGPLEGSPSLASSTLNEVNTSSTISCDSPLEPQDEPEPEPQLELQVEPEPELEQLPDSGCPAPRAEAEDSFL

According to ChEMBL document CHEMBL1131018 (J Med Chem, 1998):

Target: Platelet-derived growth factor receptor beta (Homo sapiens, UniProt P09619)
Test: Test concentration required to achieve 50% inhibition of tyrosine phosphorylation on human Platelet-derived growth factor receptor beta (PDGF RTK).

IC50: 19.4 µM
Compound: CN(C)c1ccc(/C=C2\C(=O)Nc3ccccc32)cc1
